Source: publication PMC11847841, “The development and evaluation of a tublysine-based antibody-drug conjugate with enhanced tumor therapeutic efficacy” (Frontiers in Pharmacology, 2025)

Assays:
[1] = Repeated-dose toxicity study in SD rats; type: in vivo, SD rat; settings: Tub114-cys 8 mg/kg
[2] = Repeated-dose toxicity study in cynomolgus monkeys; type: in vivo; settings: Q3W × 5

SMILES: CCC(C)C(NC(=O)C(C)(C)N(C)C)C(=O)N(C)C(CC(OC(C)=O)c1nc(C(=O)NC(Cc2ccc(O)c(NC(=O)CCCNC(=O)C(CCCCNC(=O)COCCOCCOCCOCCOCCOCCOCCOCCOCCOC)NC(=O)CCCN3C(=O)CC(SCC(N)C(=O)O)C3=O)c2)CC(C)C(=O)O)cs1)C(C)C (centres unmarked) [Tub114-cys]
- Clinical chemistry ([1]; Q3W × 5): Tub114-cys: increases in CREA and TG
- Hematology ([1]; Q3W × 5): Tub114-cys: decrease in RET
- Dead/mortality ([1]; i.v. Q3W × 5, DX126-262 30, 100, 200 mg/kg): All animals survived at the end of study
- Hematology ([2]; 3 mg/kg Tub114-cys): 3 mg/kg Tub114-cys: increases in NEUT and MONO
- Clinical chemistry ([2]; Tub114-cys 3 mg/kg): Tub114-cys: increases in CREA and TG
